The chains behind the UniProt entries cited, without tags or fusion partners. Residues count along the entry.
UniProt O00763, 129-2458: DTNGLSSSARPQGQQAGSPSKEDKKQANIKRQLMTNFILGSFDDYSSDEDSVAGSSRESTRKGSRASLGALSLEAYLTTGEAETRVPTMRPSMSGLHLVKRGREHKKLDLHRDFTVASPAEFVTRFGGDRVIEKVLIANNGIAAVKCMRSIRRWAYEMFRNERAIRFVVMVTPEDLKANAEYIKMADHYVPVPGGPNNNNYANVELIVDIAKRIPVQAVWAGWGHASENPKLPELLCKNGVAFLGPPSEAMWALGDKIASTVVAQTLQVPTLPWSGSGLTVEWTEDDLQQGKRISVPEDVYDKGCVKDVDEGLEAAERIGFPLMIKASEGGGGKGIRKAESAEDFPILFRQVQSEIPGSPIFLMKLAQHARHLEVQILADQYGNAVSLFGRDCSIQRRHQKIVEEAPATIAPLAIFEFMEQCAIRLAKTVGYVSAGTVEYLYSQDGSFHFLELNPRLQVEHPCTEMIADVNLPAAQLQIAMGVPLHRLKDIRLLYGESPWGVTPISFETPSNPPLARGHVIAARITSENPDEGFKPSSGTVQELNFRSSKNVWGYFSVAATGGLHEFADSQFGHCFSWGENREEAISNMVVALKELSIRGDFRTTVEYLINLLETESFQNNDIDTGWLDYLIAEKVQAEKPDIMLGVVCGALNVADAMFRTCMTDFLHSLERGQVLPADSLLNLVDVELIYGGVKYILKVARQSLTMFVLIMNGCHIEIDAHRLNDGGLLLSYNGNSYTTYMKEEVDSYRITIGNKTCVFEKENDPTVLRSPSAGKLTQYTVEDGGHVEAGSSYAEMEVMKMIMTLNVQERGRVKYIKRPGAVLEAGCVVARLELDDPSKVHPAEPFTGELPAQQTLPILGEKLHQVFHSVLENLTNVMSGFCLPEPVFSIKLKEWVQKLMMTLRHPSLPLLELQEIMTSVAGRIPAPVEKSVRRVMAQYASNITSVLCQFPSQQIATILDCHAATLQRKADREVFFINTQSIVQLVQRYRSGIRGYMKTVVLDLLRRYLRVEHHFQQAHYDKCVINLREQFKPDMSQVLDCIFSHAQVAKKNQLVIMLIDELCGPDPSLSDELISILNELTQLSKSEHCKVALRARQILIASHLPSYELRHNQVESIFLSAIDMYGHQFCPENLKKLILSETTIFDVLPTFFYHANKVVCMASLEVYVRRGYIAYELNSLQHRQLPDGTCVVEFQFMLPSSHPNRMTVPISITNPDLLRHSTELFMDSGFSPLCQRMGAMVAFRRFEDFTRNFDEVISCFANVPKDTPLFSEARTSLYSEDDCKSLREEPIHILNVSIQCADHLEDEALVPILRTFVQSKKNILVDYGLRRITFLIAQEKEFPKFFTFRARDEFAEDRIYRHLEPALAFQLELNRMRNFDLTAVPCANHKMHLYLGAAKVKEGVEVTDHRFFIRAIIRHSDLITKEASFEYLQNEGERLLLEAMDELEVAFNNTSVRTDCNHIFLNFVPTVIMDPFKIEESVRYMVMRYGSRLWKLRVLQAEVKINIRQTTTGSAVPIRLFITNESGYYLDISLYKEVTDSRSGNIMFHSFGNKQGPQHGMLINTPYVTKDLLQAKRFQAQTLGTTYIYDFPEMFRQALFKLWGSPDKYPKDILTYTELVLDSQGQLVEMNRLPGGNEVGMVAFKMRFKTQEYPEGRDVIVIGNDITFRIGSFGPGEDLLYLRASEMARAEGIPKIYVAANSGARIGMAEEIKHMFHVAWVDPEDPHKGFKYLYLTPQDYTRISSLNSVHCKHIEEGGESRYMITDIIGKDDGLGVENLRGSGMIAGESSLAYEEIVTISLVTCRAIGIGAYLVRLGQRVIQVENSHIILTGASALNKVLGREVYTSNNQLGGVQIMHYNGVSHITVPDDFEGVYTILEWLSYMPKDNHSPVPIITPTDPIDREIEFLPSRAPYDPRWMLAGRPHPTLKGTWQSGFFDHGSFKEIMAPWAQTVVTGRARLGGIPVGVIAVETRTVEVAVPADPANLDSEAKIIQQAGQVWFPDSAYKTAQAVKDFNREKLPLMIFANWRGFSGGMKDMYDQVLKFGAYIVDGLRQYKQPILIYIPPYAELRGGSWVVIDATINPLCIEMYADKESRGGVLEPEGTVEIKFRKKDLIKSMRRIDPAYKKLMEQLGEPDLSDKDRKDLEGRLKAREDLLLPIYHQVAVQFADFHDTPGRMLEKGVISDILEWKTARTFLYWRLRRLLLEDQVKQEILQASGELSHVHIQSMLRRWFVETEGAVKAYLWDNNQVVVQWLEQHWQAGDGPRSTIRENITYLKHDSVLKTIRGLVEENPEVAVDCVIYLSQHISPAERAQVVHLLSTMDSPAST

According to patent publication US8877741B2, “Pyrrolidine derivatives, pharmaceutical compositions and uses thereof” (Boehringer Ingelheim International GmbH, priority 2013, dated 2014):

Biological target: human ACC2 (Homo sapiens (Human), UniProt O00763)
Assay: ACC2 assay, spectrophotometric 384 well assay (NADH-linked kinetic method)
Assay type: biochemical
Settings: human ACC2 construct lacking the 128 N-terminal amino acids; coupled lactate dehydrogenase/pyruvate kinase reaction, 340 nm, 25° C.
Procedure: Spectrophotometric 384 Well Assay
Malonyl CoA formation by acetyl CoA carboxylases is stoichometrically linked to the consumption of ATP. ACC2 activity is measured in a NADH-linked kinetic method measuring ADP generated during the ACC reaction using a coupled lactate dehydrogenase/pyruvate kinase reaction.
For biological testing, a human ACC2 construct which lacks the 128 amino acids at the N-terminus for increased solubility (nt 385-6966 in Genbank entry AJ575592) is cloned. The protein is then expressed in insect cells using a baculoviral expression system. Protein purification is performed by anion exchange.
All compounds are dissolved in dimethyl sulfoxide (DMSO) to a concentration of 10 mM.
The enzymatic reaction is then started by addition of a mixture of NADH, acetyl Coenzyme A (both 2000 μM f.c.) and ATP (500 uM f.c.). The decrease of the optical density (slope S) is then determined at 25° C. at a wavelength of 340 nm over 15 minutes in a spectrophotometric reader.
Each assay microtiter plate contains wells with vehicle instead of compound as controls for the non-inhibited enzyme (100% CTL; ‘HIGH’) and wells without acetyl-CoA as controls for non-specific NADH degradation (0% CTL; ‘LOW’).
The slope S is used for calculation of % CTL=(S(compound)−S(‘LOW’))/(S(‘HIGH’)−S(‘LOW’))*100. […]

Row | IC50 [nM] | Compound
1 | 410 | CC(C)Oc1cc(N2CCC(Oc3ccc([C@H](C)NC(=O)C4CC(F)C4)cc3)C2)ccn1 (some centres unmarked) [Example 2.14]
2 | 411 | CCN(C)C(=O)N[C@@H](C)c1ccc(OC2CCN(c3ccnc(OCC(F)F)c3)C2)cc1 (some centres unmarked) [Example 3.15]
